The record followed here is PubChem BioAssay AID504490 (NMMLSC, 2011).

This is a selection; strong and weak results do not stand in their true shares. Some salts and complexes are drawn in separate pieces, as the source files them; their charges need not balance. Activity calls are given as the source filed them.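 How the source made its calls: active means inhibition above a set limit, near 3 SD of compounds lacking own fluorescence (cut at about 54% in these data); inactive means the rest.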

In the assay the test system is beta-arrestin 1 C-terminal peptide binding to AP2 beta2-adaptin appendage (human). Kind of assay: blockers of arrestin peptide association with AP2 adaptin – biochemical, GPCR trafficking, flow cytometry, primary screen (AID 504490).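 Further: plate controls were DMSO wells for no effect and 5 µM unlabelled arrestin peptide for full effect.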 Particulars: FITC-arrestin peptide / GST-AP2 beads, at 10 µM, stronger effect = higher value, AP2 beta2 appendage carries R879A mutation.
The term inhibition denotes the relative decrease from the control value, in per cent. For the molecule `CCN(CC)CCCOC(=O)C(O)(c1ccccc1)c1ccccc1`, the inhibition was inactive: 49.4%. Under `O=[N+]([O-])c1cc([N+](=O)[O-])c(Nc2cccnc2)c([N+](=O)[O-])c1` stands inactive: 5.38%; under `O=[N+]([O-])c1ccc2c(c1)C=Nc1ccccc1O2`, inactive: -0.52%. For `Cc1cccc(C)c1OP(C)(N)=O` (stereo not given), the inhibition was inactive: 35.2%. Under `CC(C)(C)c1ccc(OP(C)(=O)Nc2ccc(SC(F)(F)F)cc2)cc1` (stereo not given) stands inactive: -1.38%; under `Cc1ccc(NP(C)(=O)Oc2ccccc2)c(C)c1` (stereo not given), inactive: 9.55%; under `COc1ccccc1OP(C)(=O)Nc1ccc(C)cc1` (stereo not given), inactive: 0.9%. As for `CCOC(=O)c1ccc(NP(C)(=O)Oc2ccccc2)cc1` (stereo not given), the inhibition was inactive: -8.2%. Under `Cc1cc(C)cc(OP(C)(N)=O)c1` (stereo not given) stands inactive: -15.1%. To `COc1ccc(OP(C)(=O)Nc2cccc(F)c2)cc1` (stereo not given) belongs inactive: 5.81%; to `COc1ccccc1OP(C)(=O)Nc1cc(Cl)ccc1C` (stereo not given), inactive: -5.62%. For the molecule `CP(=S)(Nn1cnnc1)Oc1ccccc1` (stereo not given), the inhibition was inactive: 5.71%. On to `CP(=O)(Nc1ccccc1Br)Oc1ccccc1` (stereo not given), for which the inhibition was inactive: 3.83%. Under `COc1ccccc1OP(C)(=O)Nc1ccccc1` (stereo not given) stands inactive: 19.3%. To `CP(=O)(Oc1ccccc1)OC(c1ccccc1)C(F)(F)F` (stereo not given) belongs inactive: 14.8%. Take `Cc1cccc(C)c1OP(C)(=O)Nc1ccc(SC(F)(F)F)cc1` (stereo not given): the inhibition is inactive: -3.26%. Under `CP(=O)(Nc1ccc(SC(F)(F)F)cc1)Oc1ccc(Cl)cc1` (stereo not given) stands inactive: 11.5%; under `Cc1cc(C)cc(OP(C)(=O)Nc2ccc(SC(F)(F)F)cc2)c1` (stereo not given), inactive: 16.4%; under `CCc1ccc(OP(C)(=O)N2CCN(c3ccc([N+](=O)[O-])cc3)CC2)cc1` (stereo not given), inactive: -9.92%. With `CP(=O)(NC(=O)Nc1ccccc1)Oc1ccccc1` (stereo not given), the inhibition is inactive: 6.61%. Take `CCOC(=O)c1ccc(NP(C)(=O)Oc2ccc(OC)cc2)cc1` (stereo not given): the inhibition was inactive: -5.92%. Consider `O=[N+]([O-])c1cc([N+](=O)[O-])c(O)c([N+](=O)[O-])c1.c1ccc(Oc2ccncc2)cc1`, for which the inhibition is inactive: -15.5%.

Turning to `CCOP(C)(=S)SCC(=O)NC(C)C(=O)O` (stereo not given), the inhibition is inactive: -1.44%. Under `CP(=O)(Nc1ccccn1)Oc1ccc(Cl)cc1` (stereo not given) stands inactive: 24%. To `O=[N+]([O-])c1cc([N+](=O)[O-])c(-n2nnc3ccccc32)c([N+](=O)[O-])c1` belongs inactive: 19.7%; to `O=[N+]([O-])c1cc([N+](=O)[O-])c(-c2cnn(-c3ccccc3)c2)c([N+](=O)[O-])c1`, inactive: -8.76%.

Regarding `Cc1nc2ccc3ccccc3c2s1.O=[N+]([O-])c1cc([N+](=O)[O-])c(O)c([N+](=O)[O-])c1`, the inhibition was inactive: -2.6%. Consider `CCOC(=O)C(CC)C1=NC(C)(C)Cc2ccccc21.O=[N+]([O-])c1cc([N+](=O)[O-])c(O)c([N+](=O)[O-])c1` (stereo not given), for which the inhibition is inactive: -8.09%. To `O=[N+]([O-])c1cc([N+](=O)[O-])c(Nc2nnnn2CCO)c([N+](=O)[O-])c1` belongs inactive: -4.92%; to `CC1=C2N=C(C=C3N=C(C(C)=C4[N-][C@@](C)([C@@H]5N=C1[C@](C)(CCC(=O)NC[C@@H](C)OP(=O)([O-])O[C@H]1[C@@H](O)[C@@H](n6cnc7cc(C)c(C)cc76)O[C@@H]1CO)[C@H]5CC(N)=O)[C@@](C)(CC(N)=O)[C@@H]4CCC(N)=O)[C@@](C)(CC(N)=O)[C@@H]3CCC(N)=O)C(C)(C)[C@@H]2CCC(N)=O.[C-]#N.[Co+3]`, inactive: -4.16%; to `COc1ccccc1OP(C)(=O)Nc1c(C)cccc1C` (stereo not given), inactive: 12.7%. For `CN1CCCCC1COC(=O)C1(O)c2ccccc2CCc2ccccc21` (stereo not given), the inhibition was inactive: 0.75%. To `CP(=O)(Nc1ccc(SC(F)(F)F)cc1)Oc1ccccc1` (stereo not given) belongs inactive: 10.6%; to `CCCOc1ccc(NP(C)(=O)Oc2ccc(Cl)cc2)cc1` (stereo not given), inactive: 5.41%; to `O=C(O)c1cccc(Nc2c([N+](=O)[O-])cc([N+](=O)[O-])cc2[N+](=O)[O-])c1`, inactive: 5.19%. To `CC1=NCCc2c1[nH]c1ccccc21.O=[N+]([O-])c1cc([N+](=O)[O-])c(O)c([N+](=O)[O-])c1` belongs inactive: -6.66%. `COc1ccccc1OP(C)(=O)Nc1cccc(Br)c1` (stereo not given): the inhibition was inactive: -198%. Consider `Cc1cc(C)cc(OP(C)(=O)Nc2ccc(C)cc2C)c1` (stereo not given), for which the inhibition is inactive: -2.6%.

For `Cc1ccc(C)c(NP(C)(=O)Oc2ccccc2)c1` (stereo not given), the inhibition is inactive: 5%. On to `CP(=O)(Nc1cccc(Br)c1)Oc1ccccc1` (stereo not given), for which the inhibition was inactive: 6.72%. Take `Cc1cc(C)cc(OP(C)(=O)Nc2ccccn2)c1` (stereo not given): the inhibition was inactive: 30.1%. Under `CP(=O)(Nc1ccccc1F)Oc1ccccc1` (stereo not given) stands inactive: -5.31%; under `CC(C)c1ccc(OP(C)(=O)Nc2ccc(SC(F)(F)F)cc2)cc1` (stereo not given), inactive: 7.94%; under `O=C(OC1CN2CCC1CC2)c1ccc([N+](=O)[O-])cc1` (stereo not given), inactive: -8.02%. For the molecule `O=C(OCCN1CCN(CCOCc2ccccc2)CC1)C(O)(c1ccccc1)c1ccccc1`, the inhibition is inactive: 28.6%.

Turning to `COc1ccc2c(c1O)-c1c(O)c(OC)cc3c1[C@H](C2)[N+](C)(C)CC3.O=[N+]([O-])c1cc([N+](=O)[O-])c([O-])c([N+](=O)[O-])c1[O-]`, the inhibition is inactive: 15.4%. With `CCOC(=O)c1ccc(NP(C)(=O)Oc2ccc(F)cc2)cc1` (stereo not given), the inhibition is inactive: 1.03%. Under `COc1ccc(OP(C)(=O)Nc2ccc(SC(F)(F)F)cc2)cc1` (stereo not given) stands inactive: -1.12%; under `Cc1c([N+](=O)[O-])cc([N+](=O)[O-])c(Br)c1[N+](=O)[O-]`, inactive: 8.27%; under `CCN(CC)CCCOC(=O)C(O)(c1ccccc1)C1CCCCC1` (stereo not given), inactive: -1.73%. To `CP(=O)(Nc1ccccc1)Oc1ccc(F)cc1` (stereo not given) belongs inactive: 7.82%; to `CCCCCOc1ccc(NP(C)(=O)Oc2ccc(Cl)cc2Cl)cc1` (stereo not given), inactive: -11.8%. In the case of `O=[N+]([O-])c1cc([N+](=O)[O-])c(OC2CCCCC2O)c([N+](=O)[O-])c1` (stereo not given), the inhibition is inactive: 8.22%.

For the molecule `COc1ccc(OP(C)(=O)Nc2cccc(Br)c2)cc1` (stereo not given), the inhibition was inactive: 19.9%.

For the molecule `CN(C)CCOC(=O)C(O)(c1ccccc1)C1CCCCC1` (stereo not given), the inhibition is inactive: 23.1%.
